The numbers were not newly measured in patent US20090258863A1, “Method for treatment of amyotrophic lateral sclerosis using talampanel” (priority 2008, published 2009), which cites them from elsewhere.

The data set relates to ALS. Particulars: according to the Physician's Desk Reference; cited from earlier work.

Consider `Nc1nc2ccc(OC(F)(F)F)cc2s1` [Rilutek®, riluzole], for which the “survival and/or time to tracheostomy” value is “extends survival and/or time to tracheostomy”.
